Literature values as cited in patent US11116209B2, “Polymeric composite-pesticide plugs and related methods” (priority 2017, dated 2021).

In the case of emamectin benzoate, the water solubility is listed as “about 24 mg/L”.
